Data on eight molecules can be found in patent US20090099157A1, “TETRAHYDRO-PYRAZOLO-PYRIDINE THIOETHER MODULATORS OF CATHEPSIN S” (priority 2007, published 2009).

Amino acid sequences for entries named in this document (tags omitted). Residues count along the entry.
UniProt P25774, 115-331: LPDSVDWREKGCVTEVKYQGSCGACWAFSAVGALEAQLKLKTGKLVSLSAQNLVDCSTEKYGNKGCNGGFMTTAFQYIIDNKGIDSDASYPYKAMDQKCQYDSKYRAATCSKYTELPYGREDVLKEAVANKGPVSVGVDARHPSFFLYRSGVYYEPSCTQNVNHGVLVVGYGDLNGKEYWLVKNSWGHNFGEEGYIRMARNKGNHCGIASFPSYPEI

The target in the assay is Recombinant human cathepsin S (CatS) (Homo sapiens, UniProt P25774). The assay can be described thus: biochemical.

Usually IC50 stands for the concentration that gives 50% inhibition. Take `O=C(CO)N1CCc2c(c(-c3ccc(C(F)(F)F)c(SCCN4CCC(F)CC4)c3)nn2CC(O)CN2CCC(c3ccccn3)CC2)C1` (centres unmarked) [Example 276, 1-{3-[3-{[2-(4-Fluoropiperidin-1-yl)ethyl]sulfanyl}-4-(trifluoromethyl)phenyl]-5-(hydroxyacetyl)-4,5,6,7-tetrahydro-1H-pyrazolo[4,3-c]pyridin-1-yl}-3-(4-pyridin-2-ylpiperidin-1-yl)propan-2-ol]: the IC50 is 10 nM.
In the case of `CCCNCCSc1cc(-c2nn(CCCN3CCC(N4CCCC4=O)CC3)c3c2CN(S(C)(=O)=O)CC3)ccc1C(F)(F)F` [Example 531, 1-[1-(3-{5-(Methylsulfonyl)-3-[3-{[2-(propylamino)ethyl]sulfanyl}-4-(trifluoromethyl)phenyl]-4,5,6,7-tetrahydro-1H-pyrazolo[4,3-c]pyridin-1-yl}propyl)piperidin-4-yl]pyrrolidin-2-one], the IC50 was 190 nM.
On to `CS(=O)(=O)N1CCc2c(c(-c3ccc(C(F)(F)F)c(SCCN4CCCC4)c3)nn2CC(O)CN2CCC(c3ncccc3Cl)CC2)C1` (centres unmarked) [Example 743, 1-[4-(3-Chloropyridin-2-yl)piperidin-1-yl]-3-[5-(methylsulfonyl)-3-{3-[(2-pyrrolidin-1-ylethyl)sulfanyl]-4-(trifluoromethyl)phenyl}-4,5,6,7-tetrahydro-1H-pyrazolo[4,3-c]pyridin-1-yl]propan-2-ol], for which the IC50 stood at 25 nM.
The same measure for `CS(=O)(=O)N1CCc2c(c(-c3ccc(C(F)(F)F)c(SCCN4CCCC(F)(F)C4)c3)nn2CCCN2CCC(N3CCCC3=O)CC2)C1` [Example 11, 1-{1-[3-(3-{3-[2-(3,3-Difluoro-piperidin-1-yl)-ethylsulfanyl]-4-trifluoromethyl-phenyl}-5-methanesulfonyl-4,5,6,7-tetrahydro-pyrazolo[4,3-c]pyridin-1-yl)-propyl]-piperidin-4-yl}-pyrrolidin-2-one]: 120 nM; for `CS(=O)(=O)N1CCc2c(c(-c3ccc(C(F)(F)F)c(SCCN4CCC(F)CC4)c3)nn2C[C@@H](O)CN2CCC(F)(F)CC2)C1` [Example 590, (2S)-1-(4,4-Difluoropiperidin-1-yl)-3-{3-[3-{[2-(4-fluoropiperidin-1-yl)ethyl]sulfanyl}-4-(trifluoromethyl)phenyl]-5-(methylsulfonyl)-4,5,6,7-tetrahydro-1H-pyrazolo[4,3-c]pyridin-1-yl}propan-2-ol]: 330 nM; for `CS(=O)(=O)NC1CCN(CC(O)Cn2nc(-c3ccc(C(F)(F)F)c(SCCN4CCCC4)c3)c3c2CCN(S(C)(=O)=O)C3)CC1` (centres unmarked) [Example 669, N-(1-{2-Hydroxy-3-[5-(methylsulfonyl)-3-{3-[(2-pyrrolidin-1-ylethyl)sulfanyl]-4-(trifluoromethyl)phenyl}-4,5,6,7-tetrahydro-1H-pyrazolo[4,3-c]pyridin-1-yl]propyl}piperidin-4-yl)methanesulfonamide]: 170 nM.
The figure for `O[C@@H](CN1CCN(c2ccccc2)CC1)Cn1nc(-c2ccc(C(F)(F)F)c(SCCN3CCC(F)CC3)c2)c2c1CCNC2` [Example 402, (2S)-1-{3-[3-{[2-(4-Fluoropiperidin-1-yl)ethyl]sulfanyl}-4-(trifluoromethyl)phenyl]-4,5,6,7-tetrahydro-1H-pyrazolo[4,3-c]pyridin-1-yl}-3-(4-phenylpiperazin-1-yl)propan-2-ol] is 510 nM; for `CN1CCCN(C(=O)CSc2cc(-c3nn(CCCN4CCC(N5CCCC5=O)CC4)c4c3CN(S(C)(=O)=O)CC4)ccc2C(F)(F)F)CC1` [Example 96, 1-{1-[3-(5-Methanesulfonyl-3-{3-[2-(4-methyl-[1,4]diazepan-1-yl)-2-oxo-ethylsulfanyl]-4-trifluoromethyl-phenyl}-4,5,6,7-tetrahydro-pyrazolo[4,3c]pyridin-1-yl)-propyl]-piperidin-4-yl}-pyrrolidin-2-one] it is 420 nM.
